In the NIST ThermoML archive (doi:10.1016/j.fluid.2017.04.007):

How the values were obtained:
[1] = Crystal; DTA
[2] = Molar enthalpy of transition or fusion; conditions: Crystal; DSC
[3] = xn = mol fraction of the nth substance listed; conditions: 101 kPa, Liquid, Vibrating tube method

CCC[N+](CCC)(CCC)CCC.[Cl-] [tetrapropylammonium chloride]
Conditions	Molar enthalpy of transition or fusion [kcal/mol]	Normal melting temperature [°C]
[1]	–	229.92
[2]	15.9	–

CCC[N+](CCC)(CCC)CCC.[Cl-] [tetrapropylammonium chloride] + O
mass density [kg/m3], [3]
Conditions	298.15 K	308.15 K	318.15 K	328.15 K	338.15 K	348.15 K	358.15 K
x1 = 0.013	995.5	991.5	986.9	979.4	–	–	–
x1 = 0.0306	996.2	991	985.4	979.3	972.6	963.5	941.1
x1 = 0.0556	998.5	991.9	985.1	978.2	971.1	963.9	–
x1 = 0.0934	997.2	990	982.8	975.5	968.2	960.8	953.3
x1 = 0.1574	990.1	983.3	976.4	969.6	962.6	955.6	948.6
